Earlier results, collected in publication PMC9841521, “Subnanomolar Affinity and Selective Antagonism at α7 Nicotinic Receptor by Combined Modifications of 2-Triethylammonium Ethyl Ether of 4-Stilbenol (MG624)” (Journal of Medicinal Chemistry, 2022).

Tested on: α7-nAChRs
Set-up: method as in PMID 34756924
Details: cited from earlier work

CC[N+](CC)(CC)CCOc1ccc(/C=C/c2ccccc2)cc1.[I-] [Compound 1a, triethylammonium ethyl ether of 4-stilbenol]
α7-nAChR partial agonist response (100 μM application): ≈ 40 % of the 200 μM ACh control stimulation | behaviour at the α7-nAChRs (in words): very weak partial agonist
